# Screens as filed in PubChem.
# PGC1a acetyl inh: inhibitors of PGC1a acetylation signal, primary screen, cell-based, U2OS, AlphaScreen, inhibitor mode; AlphaScreen anti-acetyl-lysine; with virally co-expressed GCN5 acetyltransferase; inhibition, % at 15.6 µM; AID 651687, 2012; hit rate 0.17% among 350,000;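 active means every replicate shows inhibition of at least 40%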
# Yeast UUG start: yeast start codon fidelity modulation | S. cerevisiae UUG-firefly luciferase reporter, luminescence/redox ratio | activity score, % at 18.7 µM | hit rate 0.13% among 350,000 | AID 602363;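 active means replicate mean at a twofold rise or more, about +100% in these data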;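 further: firefly luciferase made from a UUG start codon reports start codon fidelity; reporter light over untreated wells divided by growth signal over untreated wells; some hits fall short of that in this replicate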
# esBAF inh: Bmi1 luciferase reporter increase in mESCs, primary screen, esBAF inhibitor project, mouse ES cells, Bmi1 luciferase knock-in, single point. hit rate 2% among 350,000. reporter increase, % at 12.5 µM. AID 602393, 2012. 24 h; 100% = twice the neutral-well signal; in the data active means activation above about 40%;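 further: a rise in the Bmi1 reporter signal indicates esBAF inhibition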
# E-sel inducer: E-selectin induction in HUVECs, primary screen, imaging, HUVEC, immunofluorescence imaging, single point; P16581; normalized: neutral wells 0, TNF-alpha wells 100; activation, % at 7.58 µM; hit rate 0.37% among 260,000;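 active means mean E-selectin-positive cell signal at least 10% of the positive control, reached in at least 60% of replicates, without over 20% cell loss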
#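 Test system: HUVEC | Signal: Immunofluorescence imaging | Read-out: Percent E-selectin-positive cells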
# PglD DTNB: C. jejuni PglD acetyltransferase inhibitors, primary screen, biochemical, DTNB colorimetric, single point | UDP-N-acetylbacillosamine N-acetyltransferase PglD (Campylobacter jejuni) | purified PglD enzyme, DTNB colorimetric CoA detection | inhibition, % at 12.5 µM | hit rate 0.098% among 360,000; in the data active means inhibition above about 16%, passing the limit was not always enough
# Statin myotox sup: suppressors of statin myotoxicity in C2C12 myotubes, primary screen, cell-based, single point, plate reader | C2C12 myotubes + simvastatin, ATP luminescence, 48 h; scaled: DMSO 0, geranylgeraniol control 100 | rescue of ATP level, % at 7.49 µM | hit rate 0.78% among 330,000;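 active means mean ATP rescue above about 67%, or every replicate alone reaching that limit, limit read from the data, passing the limit was not always enough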;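 further: myotubes were challenged with 10 µM simvastatin during compound exposure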
# A number is an active result; n = inactive; x = no result given. Most compounds without a hit are left out; they make up all but 2.8% or so of the library.
SMILES,PGC1a acetyl inh,Yeast UUG start,esBAF inh,E-sel inducer,PglD DTNB,Statin myotox sup
Cc1cccn2c(=O)c3c(nc12)N1CCCCCC1C1(C3)C(=O)N(C)C(=O)N(C)C1=O (stereo unspecified),n,n,x,55,n,x
O=C(Cc1ccncc1)N1CCCCN2[C@H](CO)[C@H](c3ccc(-c4ccncc4)cc3)[C@@H]2C1,n,n,x,n,n,x
CC1=CC2OC3CC4OC(=O)C=CC=CC(C(C)O)OCC(O)C5(C)OC5C(=O)OCC2(CC1O)C4(C)C31CO1 (stereo unspecified),87,x,x,n,x,x
CC1CCOC(=O)C=CC=CC(=O)OC2CC3OC4C5OC5(C)C(O)CC4(COC(=O)C1O)C2(C)C31CO1 (stereo unspecified),77,x,x,x,x,x
CC1=CC2OC3CC4OC(=O)C=CC=CC(=O)OCCC(C)C(O)C(=O)OCC2(CC1)C4(C)C31CO1 (stereo unspecified),77,x,x,x,x,x
CC(O)C1C=CC=CC(=O)OC2CC3OC4C5OC5(C)C(O)CC4(COC(=O)C(O)C(C)CCO1)C2(C)C31CO1 (stereo unspecified),87,x,x,n,x,x
N#Cc1cccc(-c2ccc([C@@H]3[C@H]4CN(C(=O)Cc5ccccc5)CCCCN4[C@H]3CO)cc2)c1,n,n,x,n,n,x
O=C(O)[C@H]1[C@H](CO)[C@H]2Cn3c(ccc(-c4ccc(F)cc4)c3=O)[C@@H]1N2CC1CCCCC1,x,x,n,n,n,n
C[C@H]1CN([C@@H](C)CO)C(=O)CCCn2cc(nn2)CO[C@@H]1CN(C)C(=O)Oc1ccc2ccccc2c1,n,n,n,n,n,n
C/C=C/c1ccc([C@@H]2[C@@H](CO)N3CCCCN(C(=O)Cc4cccnc4)C[C@@H]23)cc1,n,n,n,n,n,n
CCC(=NCCN1CCOCC1)c1c(O)n(C2CCCCC2)c(=O)[nH]c1=O,x,x,x,30,x,x
CCC(=NCCCN(CC)CC)c1c(O)n(C2CCCCC2)c(=O)[nH]c1=O,n,n,n,x,n,n
O=C1CNC[C@@H]2[C@@H](c3ccc(Br)cc3)[C@@H](CO)N12,n,x,x,n,x,x
Nc1ccccc1C(=O)OCc1ccc([N+](=O)[O-])cc1,n,n,57,x,n,n
Cc1ccccc1-c1ccc([C@H]2[C@H]3CN(C(=O)Cc4ccccn4)CCCCN3[C@H]2CO)cc1,n,n,x,n,n,x
Cc1cc(C=C2C(=O)N(C)C(=S)N(C)C2=O)c(C)n1C1CCCCC1,n,x,x,x,x,x
Cc1cc(C=C2C(=O)NC(=S)NC2=O)c(C)n1C1CCCC1,n,n,48,x,n,n
O=C(Cc1cccnc1)N1CCCCN2[C@@H](CO)[C@@H](c3ccc(C#CC4CC4)cc3)[C@@H]2C1,n,n,x,x,n,x
CC(=O)c1ccc2c(c1)C1C(Cl)C(Sc3ccccc3[N+](=O)[O-])CC1C(c1ccccc1[N+](=O)[O-])N2 (stereo unspecified),n,n,n,x,n,81
CC(=O)c1ccc2c(c1)C1C(Cl)C(Sc3ccccc3[N+](=O)[O-])CC1C(c1ccccc1)N2 (stereo unspecified),n,n,x,x,n,x
CC1=C2C[C@H]3[C@@H](CC=C4C[C@@H](O)CC[C@@]43C)[C@@H]2CC[C@]12O[C@@H]1C[C@H](C)CN[C@@H]1C2C (stereo partly specified),n,x,x,x,x,x
CC1(C)N(O)C2CCCCC2N1O (stereo unspecified),n,n,n,x,n,107
COC(=O)[C@H]1[C@H](CO)[C@H]2Cn3c(cccc3=O)[C@@H]1N2CCc1ccccc1,x,x,n,n,n,n
O=C(Cc1ccccc1)N1CCCCN2[C@H](CO)[C@@H](c3ccc(C#Cc4ccccc4)cc3)[C@@H]2C1,n,n,x,n,n,x
CCOc1ccc(-n2c(CC)nc3ccccc3c2=O)cc1,n,n,n,n,n,131
COc1ccc(-n2c(Cc3ccccc3)nc3ccccc3c2=O)cc1,n,n,x,n,n,x
